Amino acid sequences for entries named in this document (tags omitted).
UniProt P14902, whole entry: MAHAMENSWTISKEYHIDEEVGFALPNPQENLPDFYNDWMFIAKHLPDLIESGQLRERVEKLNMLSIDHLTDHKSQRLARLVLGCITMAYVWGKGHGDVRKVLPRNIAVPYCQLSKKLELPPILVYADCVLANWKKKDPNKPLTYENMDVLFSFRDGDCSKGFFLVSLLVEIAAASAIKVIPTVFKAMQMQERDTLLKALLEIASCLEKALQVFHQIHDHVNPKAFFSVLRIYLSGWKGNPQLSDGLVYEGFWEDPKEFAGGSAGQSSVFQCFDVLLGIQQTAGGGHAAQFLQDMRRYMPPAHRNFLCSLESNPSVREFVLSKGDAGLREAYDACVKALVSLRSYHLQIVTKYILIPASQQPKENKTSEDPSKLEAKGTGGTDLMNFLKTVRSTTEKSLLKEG

In US12576087B2, “Aryloxypiperidine pyrazole compounds as indoleamine 2,3-dioxygenase inhibitors” (Merck Sharp & Dohme LLC, priority 2018, dated 2026):

What follows are compounds tested against IDO1 (Homo sapiens, UniProt P14902) (assay: IDO1 Cellular Assay in HeLa Cells Stimulated with IFNγ). Conditions: HeLa cells stimulated with IFNγ 100 ng/mL, about 48 hours.
Type: cell-based
Compound `CCOC(=O)c1nn(CC(=O)N2CCC(Oc3cccc(Cl)c3)CC2)c2c1CCCC2` [Example 51, ethyl 1-(2-(4-(3-chlorophenoxy)piperidin-1-yl)-2-oxoethyl)-4,5,6,7-tetrahydro-1H-indazole-3-carboxylate] has an EC50 of 299 nM.
Compound `C[C@@H]1CN(C(=O)c2nn(CC(=O)N3CCC(Oc4ccc(F)c(F)c4)CC3)c3c2CCC3)C[C@H](C)O1` [Example 107, 1-[4-(3,4-difluorophenoxy)piperidin-1-yl]-2-{3-[(2R,6S)-2,6-dimethylmorpholine-4-carbonyl]-5,6-dihydrocyclopenta[c]pyrazol-1(4H)-yl}ethan-1-one] has an EC50 of 47.7 nM.
Work on `O=C(c1nn(CC(=O)N2CCC(Oc3ncccc3Cl)CC23CC3)c2c1CCCC2)N1CCC(OCCO)CC1` (single isomer, unassigned) [Example 63, (R or S)-1-(7-((3-chloropyridin-2-yl)oxy)-4-azaspiro[2.5]octan-4-yl)-2-(3-(4-(2-hydroxyethoxy)piperidine-1-carbonyl)-4,5,6,7-tetrahydro-1H-indazol-1-yl)ethanone] yielded an EC50 of 422 nM.
`Cc1cc(F)ccc1OC1CCN(C(=O)Cn2nc(C(=O)N3CCC(F)(CO)CC3)c3c2CCCCC3)CC1` [Example 83, 2-[3-[4-fluoro-4-(hydroxymethyl)piperidine-1-carbonyl]-5,6,7,8-tetrahydro-4H-cyclohepta[c]pyrazol-1-yl]-1-[4-(4-fluoro-2-methyl-phenoxy)-1-piperidyl]ethanone] was tested, and the EC50 was 11.9 nM.
For `C[C@@H]1CN(C(=O)c2nn(CC(=O)N3CCC(Oc4ccccc4Cl)CC3)c3c2CCC3)C[C@H](C)O1` [Example 92, 1-[4-(2-chlorophenoxy)piperidin-1-yl]-2-{3-[(2R,6S)-2,6-dimethylmorpholine-4-carbonyl]-5,6-dihydrocyclopenta[c]pyrazol-1(4H)-yl}ethan-1-one], the EC50 was 1.52 nM.
`O=C(Cn1nc(C(=O)N2CC[C@@H](O)[C@@H](F)C2)c2c1CCCC2)N1CCC(Oc2ccccc2Cl)CC1` [Example 9, 1-(4-(2-chlorophenoxy)piperidin-1-yl)-2-(3-((3S,4R)-3-fluoro-4-hydroxypiperidine-1-carbonyl)-4,5,6,7-tetrahydro-1H-indazol-1-yl)ethanone] gave an EC50 of 8.09 nM.
`Cc1ccc(OC2CCN(C(=O)Cn3nc(C(=O)N4C[C@@H](C)O[C@@H](C)C4)c4c3CCC4)CC2)cc1C` [Example 136, 2-{3-[(2R,6S)-2,6-dimethylmorpholine-4-carbonyl]-5,6-dihydrocyclopenta[c]pyrazol-1(4H)-yl}-1-[4-(3,4-dimethylphenoxy)piperidin-1-yl]ethan-1-one] was tested, and the EC50 was 8.18 nM.
For `Cc1cc(F)ccc1OC1CCN(C(=O)Cn2nc(C(=O)N3CCC(F)(CO)CC3)c3c2CCC3)CC1` [Example 80, 2-[3-[4-fluoro-4-(hydroxymethyl)piperidine-1-carbonyl]-5,6-dihydro-4H-cyclopenta[c]pyrazol-1-yl]-1-[4-(4-fluoro-2-methyl-phenoxy)-1-piperidyl]ethanone], the EC50 was 7.33 nM.
`Cc1cccc(OC2CCN(C(=O)Cn3nc(C(=O)N4C[C@@H](C)O[C@@H](C)C4)c4c3CCC4)CC2)c1C` [Example 130, 2-{3-[(2R,6S)-2,6-dimethylmorpholine-4-carbonyl]-5,6-dihydrocyclopenta[c]pyrazol-1(4H)-yl}-1-[4-(2,3-dimethylphenoxy)piperidin-1-yl]ethan-1-one] gave an EC50 of 2.8 nM.
With `Cc1cccc(OC2CCN(C(=O)Cn3nc(C(=O)N4C[C@@H](C)O[C@@H](C)C4)c4c3CCC4)CC2)c1` [Example 98, 2-{3-[(2R,6S)-2,6-dimethylmorpholine-4-carbonyl]-5,6-dihydrocyclopenta[c]pyrazol-1(4H)-yl}-1-[4-(3-methylphenoxy)piperidin-1-yl]ethan-1-one] the EC50 was 11.3 nM.
`Cc1c(Cl)cccc1OC1CCN(C(=O)Cn2nc(C(=O)N3C[C@@H](C)O[C@@H](C)C3)c3c2CCC3)CC1` [Example 134, 1-[4-(3-chloro-2-methylphenoxy)piperidin-1-yl]-2-{3-[(2R,6S)-2,6-dimethylmorpholine-4-carbonyl]-5,6-dihydrocyclopenta[c]pyrazol-1(4H)-yl}ethan-1-one] gave an EC50 of 6.9 nM.
In the case of `C[C@@H]1CN(C(=O)c2nn(CC(=O)N3CCC(Oc4ccccc4)CC3)c3c2CCC3)C[C@H](C)O1` [Example 103, 2-{3-[(2R,6S)-2,6-dimethylmorpholine-4-carbonyl]-5,6-dihydrocyclopenta[c]pyrazol-1(4H)-yl}-1-(4-phenoxypiperidin-1-yl)ethan-1-one], the EC50 is reported as 25.8 nM.
`C[C@@H]1CN(C(=O)c2nn(CC(=O)N3CCC(Oc4cc(C(F)(F)F)ccc4Cl)CC3)c3c2CCC3)C[C@H](C)O1` [Example 160, 1-{4-[2-chloro-5-(trifluoromethyl)phenoxy]piperidin-1-yl}-2-{3-[(2R,6S)-2,6-dimethylmorpholine-4-carbonyl]-5,6-dihydrocyclopenta[c]pyrazol-1(4H)-yl}ethan-1-one] gave an EC50 of 173 nM.
Work on `C[C@@H]1C[C@H](Oc2ncccc2Cl)CCN1C(=O)Cn1nc(C(=O)N2CCC(O)CC2)c2c1C[C@H]1C[C@@H]21` [Example 75, 1-((2R,4R)-4-((3-chloropyridin-2-yl)oxy)-2-methylpiperidin-1-yl)-2-((3bR,4aR)-3-(4-hydroxypiperidine-1-carbonyl)-3b,4,4a,5-tetrahydro-1H-cyclopropa[3,4]cyclopenta[1,2-c]pyrazol-1-yl)ethanone] yielded an EC50 of 2.04 nM.
Compound `O=C(CO)N1CCN(C(=O)c2nn(CC(=O)N3CCC(Oc4ccccc4Cl)C4CC43)c3c2[C@@H]2C[C@@H]2C3)CC1` (single isomer, unassigned) [Example 170] has an EC50 of 2.65 nM.
Compound `C[C@@H]1CN(C(=O)c2nn(CC(=O)N3CCC(Oc4cccc(F)c4Br)CC3)c3c2CCC3)C[C@H](C)O1` [Example 158, 1-[4-(2-bromo-3-fluorophenoxy)piperidin-1-yl]-2-{3-[(2R,6S)-2,6-dimethylmorpholine-4-carbonyl]-5,6-dihydrocyclopenta[c]pyrazol-1(4H)-yl}ethan-1-one] has an EC50 of 80.6 nM.
Compound `COC(=O)c1nn(CC(=O)N2CCC(Oc3ccccc3C)CC2)c2c1CCCCC2` [Example 50, methyl 1-(2-oxo-2-(4-(o-tolyloxy)piperidin-1-yl)ethyl)-1,4,5,6,7,8-hexahydrocyclohepta[c]pyrazole-3-carboxylate] has an EC50 of 173 nM.
For `NC(=O)CN1CCN(C(=O)c2nn(CC(=O)N3CCC(Oc4ccccc4Cl)CC3)c3c2CCCC3)CC1` [Example 5, 2-(4-(1-(2-(4-(2-chlorophenoxy)piperidin-1-yl)-2-oxoethyl)-4,5,6,7-tetrahydro-1H-indazole-3-carbonyl)piperazin-1-yl)acetamide], the EC50 was 1.47 nM.
`O=C(Cn1nc(C(=O)N2CCC(O)(CO)CC2)c2c1CCCC2)N1CCC(Oc2ccccc2Cl)CC1` [Example 1, 1-(4-(2-Chlorophenoxy)piperidin-1-yl)-2-(3-(4-hydroxy-4-(hydroxymethyl)piperidine-1-carbonyl)-4,5,6,7-tetrahydro-1H-indazol-1-yl)ethanone] was tested, and the EC50 was 4.72 nM.
Work on `Cc1cc(F)ccc1OC1CCN(C(=O)Cn2nc(C(=O)N3CCC(OCCO)CC3)c3c2CCCC3)CC1` [Example 76, 1-[4-(4-fluoro-2-methyl-phenoxy)-1-piperidyl]-2-[3-[4-(2-hydroxyethoxy)piperidine-1-carbonyl]-4,5,6,7-tetrahydroindazol-1-yl]ethanone] yielded an EC50 of 3.69 nM.
Compound `C[C@@H]1C[C@H](Oc2ccccc2Cl)CCN1C(=O)Cn1nc(C(=O)N2CCN(C(=O)CO)CC2)c2c1CCCC2` [Example 53, 1-((2R,4R)-4-(2-chlorophenoxy)-2-methylpiperidin-1-yl)-2-(3-(4-(2-hydroxyacetyl)piperazine-1-carbonyl)-4,5,6,7-tetrahydro-1H-indazol-1-yl)ethanone] has an EC50 of 8.02 nM.
For `CC(=O)NC1CCN(C(=O)c2nn(CC(=O)N3CCC(Oc4ccccc4C)CC3)c3c2CCCC3)CC1` [Example 24, N-(1-(1-(2-oxo-2-(4-(o-tolyloxy)piperidin-1-yl)ethyl)-4,5,6,7-tetrahydro-1H-indazole-3-carbonyl)piperidin-4-yl)acetamide], the EC50 was 1.91 nM.
Work on `Cc1cc(F)ccc1OC1CCN(C(=O)Cn2nc(C(=O)N3CCO[C@@H](CO)C3)c3c2CCC3)CC1` [Example 89, 1-[4-(4-fluoro-2-methyl-phenoxy)-1-piperidyl]-2-[3-[(2R)-2-(hydroxymethyl)morpholine-4-carbonyl]-5,6-dihydro-4H-cyclopenta[c]pyrazol-1-yl]ethanone] yielded an EC50 of 64.6 nM.
Work on `Cc1ccccc1NC1CCN(C(=O)Cn2nc(C(=O)N3CCC(F)(CO)CC3)c3c2C[C@H]2C[C@@H]32)CC1` [Example 176, 2-((3bR,4aR)-3-(4-Fluoro-4-(hydroxymethyl)piperidine-1-carbonyl)-3b,4,4a,5-tetrahydro-1H-cyclopropa[3,4]cyclopenta[1,2-c]pyrazol-1-yl)-1-(4-(o-tolylamino)piperidin-1-yl)ethan-1-one] yielded an EC50 of 4.51 nM.
Compound `C[C@@H]1CN(C(=O)c2nn(CC(=O)N3CCC(Oc4c(F)cccc4Cl)CC3)c3c2CCC3)C[C@H](C)O1` [Example 140, 1-[4-(2-chloro-6-fluorophenoxy)piperidin-1-yl]-2-{3-[(2R,6S)-2,6-dimethylmorpholine-4-carbonyl]-5,6-dihydrocyclopenta[c]pyrazol-1(4H)-yl}ethan-1-one] has an EC50 of 10.3 nM.
`C[C@@H]1CN(C(=O)c2nn(CC(=O)N3CCC(Oc4ccc(Cl)c5c4CCC5)CC3)c3c2CCC3)C[C@H](C)O1` [Example 129, 1-{4-[(7-chloro-2,3-dihydro-1H-inden-4-yl)oxy]piperidin-1-yl}-2-{3-[(2R,6S)-2,6-dimethylmorpholine-4-carbonyl]-5,6-dihydrocyclopenta[c]pyrazol-1(4H)-yl}ethan-1-one] was tested, and the EC50 was 1.66 nM.
Work on `O=C(c1nn(CC(=O)N2CCC(Oc3ccccc3Cl)C3CC32)c2c1[C@@H]1C[C@@H]1C2)N1CCC(OCCO)CC1` (single isomer, unassigned) [Example 169] yielded an EC50 of 2.44 nM.
`C[C@@H]1CN(C(=O)c2nn(CC(=O)N3CCC(OCc4c(F)cccc4F)C3)c3c2CCC3)C[C@H](C)O1` (stereo partly drawn) [Example 124, 1-{3-[(2,6-difluorophenyl)methoxy]pyrrolidin-1-yl}-2-{3-[(2R,6S)-2,6-dimethylmorpholine-4-carbonyl]-5,6-dihydrocyclopenta[c]pyrazol-1(4H)-yl}ethan-1-one] showed an EC50 of 398 nM.
